## Apparent affinities of Ab-14 variants for a coronavirus HR2 peptide

From the AlphaSeq antibody data of Li et al. 2023 (doi:10.1038/s41467-023-39022-2), copy in the FLAb collection.

Binding partner: SARS-CoV-2 spike HR2 peptide, sequence PDVDLGDISGINAS.

Each scFv is VH, a (GGGGS)3 linker, VL, as in the parent Ab-14, and differs from it in the CDRs of the heavy chain only.
VH: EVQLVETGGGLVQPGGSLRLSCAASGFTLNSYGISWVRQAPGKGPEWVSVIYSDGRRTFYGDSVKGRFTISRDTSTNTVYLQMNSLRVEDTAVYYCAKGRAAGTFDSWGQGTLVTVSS
VL: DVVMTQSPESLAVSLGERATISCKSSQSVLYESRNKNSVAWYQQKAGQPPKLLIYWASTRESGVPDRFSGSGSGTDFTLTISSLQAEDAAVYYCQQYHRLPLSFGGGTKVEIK

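This is the validation round: designs drawn from the data on random variants, tested in the same kind of assay. Several design methods are mixed in this list. The scFvs were displayed on barcoded MATa yeast, the peptide on MATalpha yeast. Binding brings cells together so that they mate, and sequencing counts the barcode pairs among the diploids. Read counts were normalised to the haploid input and turned into Kd by a linear fit to BCL2-family pairs of known affinity, for each replicate. Each pool was mated in six replicate cultures.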

Each variant is given by its three heavy chain CDRs, as the data file delimits them; those of the parent are GFTLNSYGIS, VIYSDGRRTFYGDSVK, GRAAGTFDS.
Affinities are written as log10 Kd with Kd in nM; a lower number is a better binder.
Averages over replicates are reported, and they cover detected replicates only.
Where no diploid with the target was found in any replicate, the entry reads "not detected": below detection, most likely a poor binder, though not proof of it.
The range of this assay differs from that of the first round, and the authors advise against merging the two.
The authors averaged sequences with at least three values out of six and counted those with two or fewer as poor binders.
As a blank, each scFv also met three strains without target: over all heavy chain designs, 1% of these pairings were detected, typically at 2.08 and seldom below 0.84.

| # | CDR-H1 | CDR-H2 | CDR-H3 | log10 Kd (nM), mean | detected |
|---|---|---|---|---|---|
| 1 | GFTLNSYGRS | VIYSDGRRTFYGDSVK | GRAPGTFDS | not detected | 0/6 |
| 2 | WFTLNEYGIS | VIYSDGRRTFYSDSVK | GRAAGTFDS | 1.29 | 6/6 |
| 3 | GFGLGEYGIS | VIYADGHRTNYSTSVK | GTIGGTFFQ | 2.57 | 1/6 |
| 4 | GFTIDEYGIS | VIYADGSRVAYDEKFK | GMLVGTFDQ | not detected | 0/6 |
| 5 | GFDLEEYGIS | VIYADGRRTAYTANVK | GGKSGDFFM | not detected | 0/6 |
| 6 | GFELNSYGIS | VIYSDGKRTFYGDSVK | GKTAGTFDS | 1.16 | 6/6 |
| 7 | HFHLNSYGIS | VIYSDGRRTFYADSVK | GRTAGTFDS | 1.24 | 6/6 |
| 8 | GEDLLEYGIS | VIYADGSRVAYTNAVK | GNLAGVFDL | 2.10 | 6/6 |
| 9 | GFHLDEYGIS | VIYADGKRVVYTNDVK | GELEFGFVI | not detected | 0/6 |
| 10 | GFTLFSYGIS | VIYSDGRRTFAGDSVK | GRAAGTALS | not detected | 0/6 |
| 11 | GFDLNEYGIS | VIYADGVRTFYSDSVK | GTNGGTFDI | -0.39 | 6/6 |
| 12 | GFTLNSYGIS | VIYSDGRRTFYTDSVK | GFAAGTFDL | 1.96 | 3/6 |
| 13 | GFSLNEYGIS | VIYSDGMRTFYSDSVK | GRAAGTFDS | 0.22 | 6/6 |
| 14 | GFKLNSYGIS | VIYADGRRTFYGDSVK | GRAAGTFKS | not detected | 0/6 |
| 15 | GFDLNSYGIS | VIYSDGRRTFYADSVK | GKAAGTFDD | 0.04 | 6/6 |
| 16 | GFNLDEYGVS | VIYADGKRTVYHDSVK | GSFLGVKLN | not detected | 0/6 |
| 17 | GFDLDEYGIS | VIYADGKRQAYADSVK | GNVAGTFDV | -0.47 | 6/6 |
| 18 | GFDINEYGIS | VIYADGRRTAYADSVK | GETAGTFDS | 0.29 | 6/6 |
| 19 | GFTINSYGIT | FIYSDGRRTFYIDSVK | GRATGTFDS | not detected | 0/6 |
| 20 | GFDLNEYGIS | VIYADGRRTFYTDSVK | GTIAGTFDV | -0.48 | 6/6 |
| 21 | GFDLESYGIS | VIYADGVRTAYADSVK | GNVAGTFDV | -0.76 | 6/6 |
| 22 | GFNLNSYGIS | VIYSDGRRTFYGDSVK | GNEAGTFDS | 0.22 | 6/6 |
| 23 | GFSLNEYGIS | VIYSDGRRTFYTDRVK | GRAAGTFDS | 0.31 | 6/6 |
| 24 | GDVLDEYGIS | VIYADGQRTFYVQDVK | GGKAGSFSV | not detected | 0/6 |
| 25 | GFELDEYGIS | VIYADGKRKAYDDAVK | GFTLGVKLI | -0.25 | 6/6 |
| 26 | GFDLNEYGIS | VIYADGRRTFYSDSVK | GEVAGTFVD | -0.04 | 6/6 |
| 27 | GFTLNDYGIS | VIYSDGRRTFYIDSVK | GREAGTFDS | -0.26 | 4/6 |
| 28 | GFTLNEDGIS | VIYSDGRTTFYGDRVK | GRAAVTFDQ | not detected | 0/6 |
| 29 | GFTLNDYGIS | VIYSPGRRTQYIDSVK | GRAAGTFDS | 1.52 | 1/6 |
| 30 | GFTLESYGIS | VIYSDGQRTFYGDSVK | GRVAGTFDS | 0.70 | 6/6 |
| 31 | GFTLAQYGIS | VIYSDGRRTFYSDSVK | GRAAGFFDS | not detected | 0/6 |
| 32 | GFTLNSYGIS | VIYSDGRRTFYGDDVK | GEAAGTFDT | 1.60 | 3/6 |
| 33 | GKSLNSYGIS | VIYSDGRRTFYTDSVK | GQTAGTFDS | not detected | 0/6 |
| 34 | GFTLNSYGIS | VIYSDGRRTFYGDAVK | GRACGTFFS | not detected | 0/6 |
| 35 | GFTLNSYGIS | VIYSDGRRTFYIDDVK | GNAAGTFDK | 0.20 | 6/6 |
| 36 | GFDLNEYGIS | VIYADGMRTFYADSVK | GQLAGTFDA | -0.38 | 6/6 |
| 37 | GFTLNSYGIS | VIYSDGCRTFYGDSVK | GRAAGTFFS | not detected | 0/6 |
| 38 | GFDLNSYGIS | VIYSDGRRTAYGDSVK | GRQAGTFDT | 1.20 | 4/6 |
| 39 | GFDLNEYGIS | VIYADGQRTFYADSVK | GQLAGTFDV | -0.54 | 6/6 |
| 40 | GRDLESYGIS | VIYADGRRKAYHDSVK | GTNGGVSFV | not detected | 0/6 |
| 41 | GFSLNEYGIS | VIYADGRRTFYGDSVK | GGAAGTFDS | 0.15 | 6/6 |
| 42 | GFDLNEYGIS | VIYADGMRTQYIDSVK | GEAAGTFDS | -0.06 | 4/6 |
| 43 | GFNIMEYGIS | VIYADGTRTAYANTVK | GKYVDTFVD | not detected | 0/6 |
| 44 | GFQLNSYGIS | VIYSDGRRTFYADSVK | GREAGTFDT | 0.31 | 6/6 |
| 45 | GFHLNSYGIS | VIYSDGRRTFYGDSVK | GRTAGTFDA | 1.04 | 6/6 |
| 46 | GMNLGEYGIS | VIYADGVRTAYVDKVK | GFNQVDSLI | not detected | 0/6 |
| 47 | GFTLNQYGIS | VTYSDGRRTFYSDSVK | GRAAGFFDS | not detected | 0/6 |
| 48 | GFDLNEYGIS | VIYADGMRTAYSDDVK | GNVAGTFDV | 0.60 | 6/6 |
| 49 | GFELNSYGIS | VIYSDGRRTFYGDDVK | GKTAGTFDS | 0.08 | 6/6 |
| 50 | GFTLNEYGIS | VIYSDGRRTFYGDSVK | GRVAGTFDL | 0.33 | 6/6 |
| 51 | GFDLNEYGIS | VIYADGKRTAYSDDVK | GEVAGTFDV | -1.00 | 6/6 |
| 52 | GFSLNEYGIS | VIYSDGRRTFYDDKVK | GKAAGTFDS | 0.37 | 6/6 |
| 53 | GQDLNEYGIS | VIYADGVRTAYAISVK | GYHGSQFDI | not detected | 0/6 |
| 54 | GFDLNSYGIS | VIYSDGRRTFYGDSVK | GRAAWTFIS | not detected | 0/6 |
| 55 | GFDLNEYGIS | VIYADGVRKAYADDVK | GENAGTFDV | -0.91 | 6/6 |
| 56 | GFNLNSYGIS | VIYADMRRTFYGDSVK | GEAAGTFDS | not detected | 0/6 |
| 57 | GFTLNSYGIS | VIYSDGRRTFYGDSVK | GRAPGTFNS | not detected | 0/6 |
| 58 | GFALNSYGIS | VIYSDGRRTFYGDSVK | GRPAGSFDS | not detected | 0/6 |
| 59 | GFDLDEYGIS | VIYADGGRVAYAQNVK | GLVGKGGDL | not detected | 0/6 |
| 60 | GFTLNSYGIS | VIYADGRRTFYGDSVK | GKAAGTFDK | 0.78 | 5/6 |
| 61 | GFDLNMYGIS | VIYSDGRRTFYGDSVK | GEAAGTFDE | 0.81 | 6/6 |
| 62 | GFNLNSYGIS | VIYSDGRRTFYGDSVK | GRAAGTGDS | not detected | 0/6 |

7 of these entries, quoted again:

| CDR-H1 | CDR-H2 | CDR-H3 | log10 Kd (nM), mean | detected |
|---|---|---|---|---|
| GFTLNDYGIS | VIYSPGRRTQYIDSVK | GRAAGTFDS | 1.52 | 1/6 |
| GFDLNEYGIS | VIYADGRRTFYSDSVK | GEVAGTFVD | -0.04 | 6/6 |
| GFTLNEYGIS | VIYSDGRRTFYGDSVK | GRVAGTFDL | 0.33 | 6/6 |
| GFTLNDYGIS | VIYSDGRRTFYIDSVK | GREAGTFDS | -0.26 | 4/6 |
| GFTLNSYGIS | VIYSDGCRTFYGDSVK | GRAAGTFFS | not detected | 0/6 |
| GRDLESYGIS | VIYADGRRKAYHDSVK | GTNGGVSFV | not detected | 0/6 |
| GFTLNSYGRS | VIYSDGRRTFYGDSVK | GRAPGTFDS | not detected | 0/6 |